Patent US20200369626A1 (Washington University, priority 2019, published 2020)

Amino acid sequences for entries named in this document (tags omitted).
UniProt O95136, whole entry: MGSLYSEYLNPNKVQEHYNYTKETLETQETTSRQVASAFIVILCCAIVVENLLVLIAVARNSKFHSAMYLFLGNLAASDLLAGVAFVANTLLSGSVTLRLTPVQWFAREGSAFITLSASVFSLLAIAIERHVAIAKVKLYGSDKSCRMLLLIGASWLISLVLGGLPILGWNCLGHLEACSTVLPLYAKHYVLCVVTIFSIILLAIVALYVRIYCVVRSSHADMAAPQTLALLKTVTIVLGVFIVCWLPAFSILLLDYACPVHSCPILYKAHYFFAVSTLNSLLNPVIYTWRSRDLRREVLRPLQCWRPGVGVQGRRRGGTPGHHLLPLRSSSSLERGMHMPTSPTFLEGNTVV

biological target: S1PR2 (Homo sapiens, UniProt O95136); assay: competitive [^32P]S1P binding assay on cell membranes, S1PR2; details: read-out: IC50 (binding potency toward S1PR2); [^32P]S1P competition, IC50 ± SD, Table 1 (2a-l, 4a-h)

| Compound | IC50 [µM] |
| --- | --- |
| COc1ccccc1NC(=O)Cn1c(=O)c2ccccc2n(CC(=O)c2ccc(F)cc2)c1=O [TZ62-016] | > 1 |
| COc1ccccc1NC(=O)Cn1c(=O)c2ccccc2n(CC(=O)c2ccccc2OC)c1=O [TZ62-020] | > 1 |
| COc1ccc(C(=O)Cn2c(=O)n(CC(=O)Nc3ccccc3OC)c(=O)c3ccccc32)cc1 [TZ62-019] | > 1 |

Now from value to compound:

| IC50 [µM] | Compound |
| --- | --- |
| > 1 | COc1ccccc1NC(=O)Cn1c(=O)c2ccccc2n(Cc2ccc(F)cc2)c1=O [TZ62-014] |
| > 1 | COc1ccccc1NC(=O)Cn1c(=O)c2ccccc2n(CC(=O)Nc2cc(Cl)nc(Cl)c2)c1=O [TZ62-093] |
